Assay results: patent publication US9775844B2, “Heterocyclic compounds and uses thereof” (Infinity Pharmaceuticals, Inc., priority 2014, dated 2017)

Chains of the proteins cited; added tags and fusions are not shown. Lines headed by an entry give the natural chain unless they say otherwise; changes in a name come on top.
UniProt P42338: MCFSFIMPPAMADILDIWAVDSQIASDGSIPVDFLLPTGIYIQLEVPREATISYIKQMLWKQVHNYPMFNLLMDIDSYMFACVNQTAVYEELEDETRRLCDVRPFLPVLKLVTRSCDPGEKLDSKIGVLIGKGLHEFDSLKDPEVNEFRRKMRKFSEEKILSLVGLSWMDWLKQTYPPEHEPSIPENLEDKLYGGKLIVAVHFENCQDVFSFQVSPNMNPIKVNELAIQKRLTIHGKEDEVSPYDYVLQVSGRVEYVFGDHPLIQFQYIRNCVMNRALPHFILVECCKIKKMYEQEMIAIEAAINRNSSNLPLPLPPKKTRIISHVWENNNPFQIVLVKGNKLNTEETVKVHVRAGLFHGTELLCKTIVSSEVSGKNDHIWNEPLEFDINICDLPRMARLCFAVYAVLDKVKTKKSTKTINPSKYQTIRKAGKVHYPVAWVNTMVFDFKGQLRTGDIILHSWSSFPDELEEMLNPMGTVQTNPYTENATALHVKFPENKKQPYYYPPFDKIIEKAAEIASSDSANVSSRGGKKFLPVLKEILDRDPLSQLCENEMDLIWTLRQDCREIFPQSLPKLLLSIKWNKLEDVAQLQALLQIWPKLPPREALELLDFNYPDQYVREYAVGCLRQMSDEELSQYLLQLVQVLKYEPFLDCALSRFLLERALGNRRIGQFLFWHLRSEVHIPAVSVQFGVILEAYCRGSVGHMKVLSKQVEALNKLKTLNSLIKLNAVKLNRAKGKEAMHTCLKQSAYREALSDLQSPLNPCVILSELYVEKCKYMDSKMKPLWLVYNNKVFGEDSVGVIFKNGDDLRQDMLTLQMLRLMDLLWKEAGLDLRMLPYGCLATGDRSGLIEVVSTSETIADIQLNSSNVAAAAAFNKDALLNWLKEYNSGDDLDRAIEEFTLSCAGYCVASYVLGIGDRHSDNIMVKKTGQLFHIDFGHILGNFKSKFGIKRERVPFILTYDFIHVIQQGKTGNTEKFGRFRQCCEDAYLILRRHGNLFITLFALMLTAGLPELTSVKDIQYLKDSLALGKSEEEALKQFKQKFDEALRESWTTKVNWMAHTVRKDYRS
UniProt P42336, whole entry: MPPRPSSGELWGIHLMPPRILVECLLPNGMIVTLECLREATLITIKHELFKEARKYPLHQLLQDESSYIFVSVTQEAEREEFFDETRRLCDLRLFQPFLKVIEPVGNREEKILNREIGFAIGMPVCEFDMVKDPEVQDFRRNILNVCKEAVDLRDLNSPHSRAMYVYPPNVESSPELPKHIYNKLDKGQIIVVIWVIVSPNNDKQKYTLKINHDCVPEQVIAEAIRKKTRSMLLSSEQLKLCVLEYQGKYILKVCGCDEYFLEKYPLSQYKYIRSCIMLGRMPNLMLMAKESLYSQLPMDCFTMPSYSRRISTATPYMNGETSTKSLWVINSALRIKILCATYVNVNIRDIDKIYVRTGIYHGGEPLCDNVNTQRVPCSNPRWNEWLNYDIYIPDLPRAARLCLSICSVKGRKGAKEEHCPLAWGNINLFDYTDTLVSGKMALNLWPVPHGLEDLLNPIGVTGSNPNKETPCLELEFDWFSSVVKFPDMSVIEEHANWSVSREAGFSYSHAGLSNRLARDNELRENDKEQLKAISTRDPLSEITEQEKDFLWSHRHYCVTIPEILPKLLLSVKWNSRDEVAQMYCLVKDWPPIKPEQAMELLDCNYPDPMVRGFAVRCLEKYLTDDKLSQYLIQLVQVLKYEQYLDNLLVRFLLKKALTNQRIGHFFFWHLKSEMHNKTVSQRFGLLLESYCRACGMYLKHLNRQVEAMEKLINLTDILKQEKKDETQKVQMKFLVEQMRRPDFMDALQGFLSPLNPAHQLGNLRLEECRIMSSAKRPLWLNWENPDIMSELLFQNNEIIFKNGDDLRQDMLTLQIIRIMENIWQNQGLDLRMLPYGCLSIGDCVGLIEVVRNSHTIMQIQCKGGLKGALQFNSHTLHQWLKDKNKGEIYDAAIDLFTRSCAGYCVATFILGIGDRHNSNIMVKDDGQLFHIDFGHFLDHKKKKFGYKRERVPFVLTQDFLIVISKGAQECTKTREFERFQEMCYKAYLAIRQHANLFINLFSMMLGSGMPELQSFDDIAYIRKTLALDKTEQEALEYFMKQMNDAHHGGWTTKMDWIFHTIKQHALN
UniProt O00329: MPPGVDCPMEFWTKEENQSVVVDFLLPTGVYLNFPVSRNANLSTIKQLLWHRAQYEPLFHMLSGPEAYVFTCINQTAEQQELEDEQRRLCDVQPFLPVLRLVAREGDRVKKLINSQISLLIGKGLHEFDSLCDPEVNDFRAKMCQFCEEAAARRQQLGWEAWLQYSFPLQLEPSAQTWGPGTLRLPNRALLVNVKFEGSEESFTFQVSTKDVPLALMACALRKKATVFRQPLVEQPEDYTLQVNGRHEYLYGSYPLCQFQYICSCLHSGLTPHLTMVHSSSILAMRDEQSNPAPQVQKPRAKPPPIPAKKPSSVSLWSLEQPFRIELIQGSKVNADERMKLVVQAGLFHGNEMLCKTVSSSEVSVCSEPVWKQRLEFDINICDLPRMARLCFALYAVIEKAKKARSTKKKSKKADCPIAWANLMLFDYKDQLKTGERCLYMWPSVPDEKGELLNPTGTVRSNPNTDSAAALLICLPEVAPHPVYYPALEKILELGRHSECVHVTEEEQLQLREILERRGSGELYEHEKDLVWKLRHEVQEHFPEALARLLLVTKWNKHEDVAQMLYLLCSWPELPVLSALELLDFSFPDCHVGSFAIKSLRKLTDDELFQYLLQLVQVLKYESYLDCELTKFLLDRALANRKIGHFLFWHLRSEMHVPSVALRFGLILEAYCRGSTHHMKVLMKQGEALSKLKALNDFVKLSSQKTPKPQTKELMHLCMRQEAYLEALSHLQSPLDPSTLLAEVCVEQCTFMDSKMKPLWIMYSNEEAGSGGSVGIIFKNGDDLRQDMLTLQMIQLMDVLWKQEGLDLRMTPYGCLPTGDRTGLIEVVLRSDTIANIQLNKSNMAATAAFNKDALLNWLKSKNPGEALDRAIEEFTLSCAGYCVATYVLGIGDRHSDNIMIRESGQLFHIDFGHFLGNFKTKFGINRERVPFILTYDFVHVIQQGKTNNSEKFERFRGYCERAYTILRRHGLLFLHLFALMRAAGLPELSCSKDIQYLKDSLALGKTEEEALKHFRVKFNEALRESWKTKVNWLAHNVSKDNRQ

Experiments:
Assay in all cases: PI3-Kinase Promega ADP-Glo Max assay
Format in all cases: biochemical
[1] = biological target: PI3K β (Homo sapiens (Human), UniProt P42338)
[2] = biological target: PI3K α (Homo sapiens (Human), UniProt P42336)
[3] = biological target: PI3K δ (Homo sapiens (Human), UniProt O00329)

Row | Compound | IC50 [1] [µM] | IC50 [2] [µM] | IC50 [3] [µM]
1 | C[C@H](NC(=O)c1c(N)nn2cccnc12)c1cc2cccc(C#Cc3ccc(=O)[nH]c3)c2c(=O)n1-c1ccccc1 [Compound 33] | 5 to 10 | – | –
2 | C[C@H](NC(=O)c1c(N)nn2cccnc12)c1cc2cccc(/C=C/c3cnn(C)c3)c2c(=O)n1-c1ccccc1 [Compound 52] | – | 5 to 10 | –
3 | C[C@H](NC(=O)c1c(N)nn2cccnc12)c1cc2cccc(/C=C\c3cnn(C)c3)c2c(=O)n1-c1ccccc1 [Compound 53] | – | 5 to 10 | –
4 | C[C@H](NC(=O)c1c(N)nn2cccnc12)c1cc2cccc(C#Cc3cn(C)cn3)c2c(=O)n1-c1ccccc1 [Compound 81] | 1 to 5 | 1 to 5 | 1 to 5
